Earlier results on one molecule are cited in patent publication US20240342233A1, “Herbal composition for prostate health and prostate cancer prevention” (priority 2022, published 2024).

The structures appear in SMILES notation.

The conditions of this data set: peripheral neuropathy, gastric symptoms, liver, kidney and heart problems, alopecia.

Regarding `[Se]` [Selenium], the toxic dose result is “over 400 mcg”.
